Data as given in patent publication US20140243272A1 (ALPHABETA, published 2014).

Key:
[1] = molecular target: T1, cellulose-bound decamer of V; experiment: cellulose-bound decamer SPOT membrane, 1 µg/ml protein, S-protein-HRP, ECL
T1 construct: also called stretch of V
Experimental: (§1) To study binding of recombinant human CTproSP-C and its Brichos domain to cellulose-bound decamers of the indicated residues, decamers of the indicated amino acid residues were covalently attached to a cellulose SPOT membrane (Frank R, J Immunol Meth, 267:13-26, 2002). Recombinant human S-tagged CTproSP-C (SEQ ID NO: 20) and the (S-tagged) Brichos domain of human CTproSP-C was produced in E. coli as described in Example 1.
(§2) The membrane was incubated with 1 μg/ml CTproSP-C in 50 mM Tris, 137 mM NaCl, 2.7 mM KCl, pH 8, containing 0.05% Tween (T-TBS) for 1 h at 22° C. After blocking with 2% BSA for one hour and washing with T-TBS 4×1 h, the membranes were incubated with HRP-conjugated S-protein (Novagen, Madison, Wis.) diluted 1:5000. The membranes were then washed again as above, and bound S-tagged CTproSP-C was visualized by enhanced chemiluminescence, see FIG. 3A. CTproSP-C binds to stretches of V, I, L, F, M, or Y, but not to A, W, G, P, or T counterparts.

[2] = molecular target: T1, cellulose-bound decamer of V; experiment: cellulose-bound decamer SPOT membrane
Experimental: as §1, §2

[3] = molecular target: T1, cellulose-bound decamer of V; experiment: cellulose-bound decamer SPOT membrane, control
Experimental: as §1, §2

B1: S-tagged recombinant human CTproSP-C (proSP-C^59-197) (other)
chain: GSGMKETAAAKFERQHMDSPDLGTDDDDKAMAHMSQKHTEMVLEMSIGAPEAQQRLALSEHLVTTATFSIGSTGLVVYDYQQLLIAYKPAPGTCCYIMKIAPESIPSLEALTRKVHNFQMECSLQAKPAVPTSKLGQAEGRDAGSAPSGGDPAFLGMAVSTLCGEVPLYYI
notes: SEC and ESI-MS show mainly trimers and oligomers of trimers; also called CTC; C-terminal domain of lung surfactant protein C precursor
[1]
  binding result: binds

B2: Recombinant human CTproSP-CBrichos (human proSP-C^94-197), S-tagged (other)
chain: FSIGSTGLVVYDYQQLLIAYKPAPGTCCYIMKIAPESIPSLEALNRKVHNFQMECSLQAKPAVPTSKLGQAEGRDAGSAPSGGDPAFLGMAVNTLCGEVPLYYI
notes: also called Brichos domain of human CTproSP-C; Brichos region; not shown: S-tag and vector residues from pET-32c left after thrombin cleavage
[2]
  binding result: binds

B3: Recombinant human CTproSP-C^L188Q, S-tagged (other)
chain: HMSQKHTEMVLEMSIGAPEAQQRLALSEHLVTTATFSIGSTGLVVYDYQQLLIAYKPAPGTCCYIMKIAPESIPSLEALNRKVHNFQMECSLQAKPAVPTSKLGQAEGRDAGSAPSGGDPAFLGMAVNTQCGEVPLYYI
notes: also called mutant human CTproSP-C^L188Q; not shown: S-tag left after thrombin cleavage
[3]
  binding result: no binding
